By UniProt entry, the sequences of proteins in these tests, tags left out.
UniProt P10415, whole entry: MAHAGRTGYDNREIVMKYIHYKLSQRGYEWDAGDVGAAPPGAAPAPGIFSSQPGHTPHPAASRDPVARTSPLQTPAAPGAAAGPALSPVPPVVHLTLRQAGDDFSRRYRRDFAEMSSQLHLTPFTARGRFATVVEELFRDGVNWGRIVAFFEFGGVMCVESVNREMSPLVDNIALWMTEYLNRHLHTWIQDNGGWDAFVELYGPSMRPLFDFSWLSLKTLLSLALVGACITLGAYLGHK

In ChEMBL document CHEMBL5726656, “N-(phenylsulfonyl)benzamides and related compounds as BCL-2 inhibitors” (2019):

Biological target: Apoptosis regulator Bcl-2 (Homo sapiens, UniProt P10415)
Assay: FP values were measured as described above.

| SMILES | IC50 [nM] |
| --- | --- |
| O=C(NS(=O)(=O)c1cc([N+](=O)[O-])c2cnn(C3CCOCC3)c2c1)c1ccc(N2CCN(CC3=C(c4ccc(Cl)cc4)CC4(CCC4)CC3)CC2)cc1Oc1cnc2[nH]ccc2c1 | 2.4 |
| O=C(NS(=O)(=O)c1ccc(NCC2COCCO2)c([N+](=O)[O-])c1)c1ccc(N2CCN(CC3=C(c4ccc(Cl)cc4)CC4(CC3)COC4)CC2)cc1Oc1cnc2[nH]ccc2c1 (configuration not stated) | 2.4 |
